Target: CDK9 (Homo sapiens, UniProt P50750)
Assay: Kinase inhibition profiling (filter binding assay with γ-33P-ATP)

Amino acid sequences for entries named in this document (tags omitted).
UniProt P50750, whole entry: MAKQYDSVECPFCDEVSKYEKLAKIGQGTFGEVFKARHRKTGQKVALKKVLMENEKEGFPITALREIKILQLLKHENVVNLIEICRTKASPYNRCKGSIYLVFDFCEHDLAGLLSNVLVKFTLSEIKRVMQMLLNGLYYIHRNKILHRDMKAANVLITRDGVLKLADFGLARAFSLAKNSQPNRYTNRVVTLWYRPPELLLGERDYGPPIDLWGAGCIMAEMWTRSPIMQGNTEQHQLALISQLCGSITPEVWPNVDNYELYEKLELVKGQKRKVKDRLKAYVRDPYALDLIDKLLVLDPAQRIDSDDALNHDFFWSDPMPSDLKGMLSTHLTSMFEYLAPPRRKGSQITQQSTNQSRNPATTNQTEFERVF

- inhibition of CDK9: potent inhibitor
Structure (SMILES): CN1CC[C@H](c2c(O)cc(O)c3c(=O)cc(-c4ccccc4Cl)oc23)[C@H](O)C1 [flavopiradol, reference compound]
